Target: human Y4 receptor (human) (UniProt P50391)
Assay: cell-based or functional assay

Sequences of proteins named here, by UniProt entry; tags and fusion partners are left off. A change or cut given only in a name is not applied to a line headed by its entry.
UniProt P50391: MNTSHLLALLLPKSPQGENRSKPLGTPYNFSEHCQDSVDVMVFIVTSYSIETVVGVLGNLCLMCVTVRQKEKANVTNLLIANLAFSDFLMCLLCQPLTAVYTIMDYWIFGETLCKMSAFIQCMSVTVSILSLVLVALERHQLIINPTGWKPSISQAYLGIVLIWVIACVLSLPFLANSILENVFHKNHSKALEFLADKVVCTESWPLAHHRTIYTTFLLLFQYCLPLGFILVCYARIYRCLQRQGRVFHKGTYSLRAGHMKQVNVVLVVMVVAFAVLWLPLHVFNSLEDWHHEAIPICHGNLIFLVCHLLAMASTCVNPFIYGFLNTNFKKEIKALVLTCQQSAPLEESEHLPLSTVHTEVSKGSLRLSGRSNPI

With PYY3-36 (peptide) the EC50, cAMP assay (LANCE) on receptor-expressing cells was 137 nM.

— patent US20210094998A1
